Laboratory results published in patent US4710500A, “1-(4'-fluorophenyl)-3,5-substituted indoles useful in the treatment of psychic disorders and pharmaceutical compositions thereof” (H. Lundbeck A/S, priority 1985, dated 1987).

Amino acid sequences for entries named in this document (tags omitted).
UniProt P14842, whole entry: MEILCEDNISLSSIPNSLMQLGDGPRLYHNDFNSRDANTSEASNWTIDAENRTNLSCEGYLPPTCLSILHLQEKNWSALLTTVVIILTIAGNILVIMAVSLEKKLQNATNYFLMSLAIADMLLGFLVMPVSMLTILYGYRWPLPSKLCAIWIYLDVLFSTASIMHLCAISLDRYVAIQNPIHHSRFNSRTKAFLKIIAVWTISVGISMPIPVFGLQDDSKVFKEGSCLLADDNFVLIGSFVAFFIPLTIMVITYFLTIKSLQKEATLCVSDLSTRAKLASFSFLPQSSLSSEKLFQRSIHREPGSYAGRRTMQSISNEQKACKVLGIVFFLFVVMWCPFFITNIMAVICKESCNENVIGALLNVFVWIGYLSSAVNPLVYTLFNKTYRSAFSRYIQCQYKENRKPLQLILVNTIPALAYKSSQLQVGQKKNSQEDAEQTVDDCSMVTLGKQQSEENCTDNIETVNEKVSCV
UniProt P61169, whole entry: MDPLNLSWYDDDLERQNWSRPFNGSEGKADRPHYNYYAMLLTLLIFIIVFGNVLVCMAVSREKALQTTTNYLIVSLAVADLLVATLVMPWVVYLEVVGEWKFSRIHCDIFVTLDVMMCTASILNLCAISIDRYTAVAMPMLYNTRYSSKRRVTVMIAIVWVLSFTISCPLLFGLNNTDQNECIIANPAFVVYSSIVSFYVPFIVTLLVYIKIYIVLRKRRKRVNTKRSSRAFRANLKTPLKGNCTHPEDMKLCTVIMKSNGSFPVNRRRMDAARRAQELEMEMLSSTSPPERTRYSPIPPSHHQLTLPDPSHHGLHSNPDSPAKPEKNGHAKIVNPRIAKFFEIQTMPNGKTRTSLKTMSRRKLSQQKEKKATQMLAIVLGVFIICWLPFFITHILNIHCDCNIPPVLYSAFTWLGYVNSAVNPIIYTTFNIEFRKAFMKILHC

What was measured:
in vivo = settings: mouse, iv
[1] = target: T1, serotomin2 (5-HT2) receptors (Rattus norvegicus, UniProt P14842); test: 3H-spiroperidol binding, 5-HT2 receptors in rat cortical membranes; settings: in vitro, read-out: 3H-Spiroperidol bindings 5-HT2 receptors IC50
T1 construct: 5-HT2 receptors in rat cortical membranes; from tissue; host or cells: rat cortical membranes

[2] = target: T2, dopamine (DA) D-2 receptors (Rattus norvegicus, UniProt P61169); test: 3H-spiroperidol binding, dopamine D-2 receptors in rat striatal membranes; settings: in vitro, read-out: 3H-Spiroperidol bindings DA-2 receptors IC50
T2 construct: DA D-2 receptors in rat striatal membranes; from tissue; host or cells: rat striatal membranes

SMILES | LD50 (in vivo) [µmol/kg] | IC50 [1] [nM] | IC50 [2] [nM]
OCCN1CCN(CC/C=C2/c3ccccc3Sc3ccc(C(F)(F)F)cc32)CC1 [Cis(Z)Flupentixol, reference compound] | 120 to 180 | – | –
O=C1NCCN1CCN1CCC(c2cn(-c3ccc(F)cc3)c3ccc(Cl)cc23)CC1 [Lu 23-174, 5-Chloro-1-(4'-fluorophenyl)-3-(1-(2-imidazolidinon-1-ylethyl)-4-piperidyl)-1H-indole, maleate] | – | 6.6 | 20

Where a name gives a salt, the structure may show the parent alone.
